The test relates to healthy volunteers. Kind of test: Phase 1 MAD study: gastric emptying by scintigraphic imaging. It counts as in vivo, human.

Where “and” joins values, the source holds several entries; their conditions need not be identical. Equal entries are not always repeated.

Regarding `C[C@@H]1CN[C@@H](C2CC2)C(=O)N(C)[C@H](C)C(=O)N[C@H](Cc2ccc(F)cc2)C(=O)NCCCc2ccccc2O1` [ulimorelin], the “maximum effect of Emax model, improvement in gastric emptying” value (PK-PD modeling of Cmaxfree versus T50%) was “about 50%”. For the same molecule, where the note is “in vivo”, the “improvement in gastric emptying” value was 25% and 40%.

The record behind these values is US10092621B2 (dated 2018).
